## scFv variants of Ab-14 (light chain) against a SARS-CoV-2 spike peptide

Binding partner: SARS-CoV-2 spike HR2 peptide, sequence PDVDLGDISGINAS.

Each scFv is VH, three GGGGS repeats, VL, as in the parent Ab-14, and differs from it in the CDRs of the light chain only.
VH: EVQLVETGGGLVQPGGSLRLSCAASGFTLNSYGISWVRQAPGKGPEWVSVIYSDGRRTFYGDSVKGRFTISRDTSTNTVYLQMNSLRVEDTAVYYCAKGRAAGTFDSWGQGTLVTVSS
VL: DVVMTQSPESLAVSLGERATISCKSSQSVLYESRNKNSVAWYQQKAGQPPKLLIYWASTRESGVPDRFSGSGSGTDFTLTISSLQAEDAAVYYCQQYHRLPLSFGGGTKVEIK

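Phage display of a naive human antibody library on the peptide gave the parent. These sequences belong to a second round, designed from the earlier measurements on random variants of the parent. Group labels follow the data file (Ctrl: baseline library sampled from a position-specific scoring matrix, with some repeated check sequences; Rand: our label for a block that the file lists under HC and that is probably the random mutants of the ten best first-round binders; GP: Gaussian process model; HC: hill climbing; Gen: genetic algorithm; Gibbs: Gibbs sampling; a sequence that several methods proposed may carry one label only). The scFvs were displayed on barcoded MATa yeast, the peptide on MATalpha yeast. The frequency of each diploid, read from paired DNA barcodes, reflects how well the two displayed proteins bind. A regression on co-assayed BCL2-family reference pairs converts the normalised counts of each replicate to an apparent Kd. The assay was run in six technical replicates.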

The parent's light chain CDRs are KSSQSVLYESRNKNSVA, WASTRES, QQYHRLPLS; each variant's own CDRs replace them letter for letter.
Variants here have at most six changes.
Each Kd is an estimate from the mating assay, the geometric mean of the replicates in which the pair was seen; lower is stronger.
An entry "nd" has no value in the source: the pair was not observed among the diploids in any replicate. This suggests poor binding but is not conclusive.
The authors averaged sequences with at least three values out of six and counted those with two or fewer as poor binders.
Values of this round are not directly comparable with the first-round values of the same sequences.
Empty control strains, which show no peptide, gave a signal in 4% of pairings with all light chain designs; the median was 430 nM and 95% of these signals were weaker than 38 nM. No background was subtracted.
Of ten entries with the parent sequence, four were seen in most replicates (averages 2.2 nM to 240 nM), three in one and three in none, so single entries are noisy.

CDR-L1	CDR-L2	CDR-L3	group	apparent Kd	detected
KLEQSTLYESRNKNSVA	NASQRES	QQYHRLPLS	GP_Gen	400 pM	6 of 6
KSSPSVLYESHNKNSVA	QASTRMS	QQYHRLPLS	GP_HC	5.9 nM	6 of 6
KFSQSELYESRQKNSVA	NASQRES	QQYHRLPLS	GP_Gen	3.7 nM	5 of 6
KLSPSELYESRNKNSVA	EASTRES	QQYHRLPLS	GP_Gen	2.2 nM	6 of 6
KSSQSVLYESENKNSVA	EASQRES	QQYHRLPLS	GP_HC	3.5 nM	6 of 6
KSSQSVLTESRNFNSVA	AASTRES	QQYHRNPNS	Ctrl	1.6 nM	6 of 6
KLSQSVLYESRNKFSVA	NASTRES	QQYHRLPLS	GP_Gen	880 pM	6 of 6
KRSQSMLYESRNKNSCA	KASTRES	QQYLRLPLA	Ctrl	29 nM	5 of 6
KLSQSKLYESRNKNNVA	HASTRES	QQYHRLPLS	GP_Gen	1.4 nM	6 of 6
KSSQSVLYESTEKNSVA	WASTRVS	GQYHRLPLS	Ctrl	120 nM	4 of 6
IAYQSWLYESRNKNSVA	GASTRES	QQYHRLPLI	GP_HC	6.1 nM	6 of 6
KHSQSVLYESRNKNSVA	GASTRES	QQYHRLPLS	GP_Gen	11 nM	6 of 6
KLSQSPLYESRNKNSVA	NASTRMS	QQYHRLPLS	GP_Gen	730 pM	6 of 6
KLSQSVKMESRNKNSVA	DASTRES	QQYHRLPLS	GP_HC	1.0 nM	6 of 6
KLSQSMLYESRNKNNVA	DASQRES	QQYHRLPLS	GP_Gen	390 pM	6 of 6
KLSQLVLYESRNKNSVA	NASTRMS	QQYHRLPLS	GP_Gen	1.8 nM	6 of 6
KSSQSVLFESRSKNSVA	HASTRES	QQYHRFPLS	Ctrl	150 nM	5 of 6
KVSPSMLYESRNKNSVA	DASTRES	QQYHRLPLS	GP_Gen	310 pM	6 of 6
KVSQSELYESRNKNSVA	NASQRES	QDYHRLPLS	GP_Gen	1.4 nM	6 of 6
KSSQSFLYESRNKNSVA	GASSRES	QQYHRLPLS	GP_HC	4.8 nM	4 of 6
KSSQSVLYSSRNKNSVA	WGSTRDS	QQYSRLPLS	Ctrl	58 nM	5 of 6
KSSQSWLYESRNFWSVA	GASTRES	QQYHRLPLS	GP_HC	4.3 nM	6 of 6
KLSQSMEYESRNKNSVA	NASQRES	QQYHRLPLS	GP_Gen	770 pM	6 of 6
KLPQSCLYESRNKNSVA	NASTRES	QQYHRLPLS	GP_Gen	830 pM	6 of 6
KSSNSVLYNSREKNSVA	GASTRES	QQYHRLPLS	Ctrl	1.3 nM	6 of 6
KSMISVLYESLNKNSVA	GASTREE	QQYHRLCLS	Ctrl	170 nM	3 of 6
KSSQSPLYESRNKNSVA	WASTRES	QQYHRLPFS	Ctrl	710 nM	3 of 6
KGSQSVLYESRNKNSVA	AASTRES	QQYHRLPLS	Ctrl	5.1 nM	6 of 6
KLEQSDLYESRNKNSVA	NASTRMS	QQYHRLPLS	GP_Gen	660 pM	6 of 6
KSSQSVLYESNNKNSVA	WASTRES	QQYHRLPFS	Ctrl	28 nM	6 of 6
KVSQSVLYESRNKNSVA	DASTRHS	QQYHRLHLS	Ctrl	99 nM	5 of 6
KSHQSVLNISRNKNSVA	WASTRES	QQYHRLPLS	Ctrl	nd	0 of 6
KSSISYLYESRNKNSVA	AASIRES	QQYHRLPLS	GP_HC	2.7 nM	6 of 6
KLSQSVLYESRNKNSVA	GASQRES	QDYHRLPLS	GP_Gen	720 pM	6 of 6
KQSQSVLYESRNKNSVA	QASTRES	QQYHRLPLD	GP_HC	140 nM	6 of 6
KVSQSDLCESRNKNSVA	DASTRES	QQYHRLPLS	GP_HC	8.1 nM	6 of 6
KSGQGVLYESRNKNNVA	GASTRES	QQYHTLPLS	Rand	410 pM	6 of 6
KSSQSVLYESRNKNSVA	KASTRES	QQYGRLPLS	Ctrl	5.5 nM	6 of 6
KLSQSVLSESRNKNSVA	WASTRES	QQYHDLPLS	Ctrl	170 nM	6 of 6
VLQQSVLPESRNKNSVA	MASTRLS	QQYHRLPLS	GP_Gibbs	93 nM	6 of 6
KSSGSWLYESRNKNSVA	GASTREN	QQYHRLPLS	GP_HC	560 pM	6 of 6
KFSQSVGYESRNKNSVA	NAQTRMQ	QQYHRLPLS	GP_Gibbs	950 pM	6 of 6
HSSASVLYESRNKNNVA	NASTRES	QQYHRLPLS	GP_HC	740 pM	6 of 6
KMSQSELYESRNKNSVA	DASQRES	QQYHRLPLS	GP_Gen	420 pM	6 of 6
KMQQSVLYESRNKNSVA	NASQRES	QQYHRLPLS	GP_Gen	390 pM	6 of 6
KSSQSVEYESSNKNSVA	WASTRES	QQYHRLPIS	Ctrl	68 nM	1 of 6
KLSQSVWYESRLKNSVA	NASTRMY	QQYHRLPLS	GP_Gibbs	1.6 nM	6 of 6
KISQSVLYESRNKNSVA	WASTREA	QQYHRLPLS	Ctrl	1.9 nM	6 of 6
KMSQSVEYEHLNNNSVA	WESTRES	QQYHRLPLS	Ctrl	2.9 µM	5 of 6
KSSQSVLIESFNKNSVA	WASTRES	QHYHRLPLS	Ctrl	460 nM	2 of 6
KSSQSVLYESRNKNSVA	WASLAES	QQYGRLPLS	Ctrl	nd	0 of 6
KSLQSQLYESRNKNSVA	HASTRED	QQYHRLPLS	GP_HC	4.2 nM	6 of 6
KLYQSVLYESRNKNSVA	NASTRSS	QQYHRLPLS	GP_Gen	790 pM	6 of 6
HLSFSVLYESRNKNSVA	NASTRES	QQYHRLPLN	GP_HC	2.7 nM	6 of 6

The last 6 entries again:

CDR-L1	CDR-L2	CDR-L3	group	apparent Kd	detected
KMSQSVEYEHLNNNSVA	WESTRES	QQYHRLPLS	Ctrl	2.9 µM	5 of 6
KSSQSVLIESFNKNSVA	WASTRES	QHYHRLPLS	Ctrl	460 nM	2 of 6
KSSQSVLYESRNKNSVA	WASLAES	QQYGRLPLS	Ctrl	nd	0 of 6
KSLQSQLYESRNKNSVA	HASTRED	QQYHRLPLS	GP_HC	4.2 nM	6 of 6
KLYQSVLYESRNKNSVA	NASTRSS	QQYHRLPLS	GP_Gen	790 pM	6 of 6
HLSFSVLYESRNKNSVA	NASTRES	QQYHRLPLN	GP_HC	2.7 nM	6 of 6

The measurements come from Li et al. 2023 (doi:10.1038/s41467-023-39022-2) through the FLAb antibody collection.